Values quoted from earlier work, collected in patent US20230167447A1, “Compositions for FNIP1/FNIP2 Gene Modulation and Methods Thereof” (Genetic Intelligence, Inc, priority 2021, published 2023).

Test system: ALS patients
Details: in most cases

Structure (SMILES): Nc1nc2ccc(OC(F)(F)F)cc2s1 [Riluzole, riluzole]
- extension of survival of ALS patients: 2-3 months
